{"source": "patent US12636373B2", "about": "“Prodrugs with a tridentate self-immolative linker” (The General Hospital Corporation, priority 2018, dated 2026)", "key": {"[1]": {"tested_on": "HT1080 fibrosarcoma cancer cells", "assay": "Resazurin-based cytotoxicity assay, 72 h"}, "[2]": {"assay": "In vitro NP prodrug release in PBS", "format": "physicochemical", "settings": "72 h at 37° C. in PBS", "experimental": "Transmission electron microscopy (TEM) was performed in the Microscopy Core of the Center for Systems Biology/Program in Membrane Biology (MGH). […] Excess solution was blotted, grids were stained with phosphotungstic acid, and then blotted, dried and imaged. In vitro NP prodrug release was performed by incubating in PBS at 37° C., separating NPs using a 30 kDa molecular weight cutoff filter (Millipore Amicon) after 72 h, and measuring flow-through for drug content by absorbance (Nanodrop). NP was dissolved in DMF and also measured for drug content by absorbance. Pd-NP, Alloc2R110 and its nanoformulation, and all Pd compounds were synthesized and characterized as previously described.^5"}}, "note": "Where a SMILES comes first, the peptide text is derived from it. [ ]: non-standard residue; d: D form. The star is where a group is joined. ξ: configuration not given here. Dolaproine = CO[C@@H]([C@@H]1CCCN1)[C@@H](C)C(=O)O; X1 = C=CCOC(=O)Nc1ccc(C(OC(=O)*)C(=O)NCC)cc1; Dil = CC[C@H](C)[C@H](NC)[C@@H](CC(=O)O)OC; X2 = C[C@@H](N*)[C@@H](O)c1ccccc1; NMeV = CN[C@H](C(=O)O)C(C)C; ξV = CC(C)C(N)C(=O)O"}
{"smiles": "C=CCOC(=O)Nc1ccc(C(OC(=O)N(C)[C@H](C(=O)NC(C(=O)N(C)[C@@H]([C@@H](C)CC)[C@@H](CC(=O)N2CCC[C@H]2[C@H](OC)[C@@H](C)C(=O)N[C@H](C)[C@@H](O)c2ccccc2)OC)C(C)C)C(C)C)C(=O)NCC)cc1", "note": "(stereo partly shown) [C16proMMAE, Alloc-SIL-C16-MMAE] (X1-[NMeV][ξV][Dil][Dolaproine]-X2)", "values": [{"measurement": "turn-on capacity in cytotoxicity, fold greater than Alloc-DOX", "setting": "[1]", "result": 100, "unit": "fold"}, {"measurement": "fold change in cytotoxicity (IC50) upon Pd-NP activation", "setting": "[1]; HT1080", "result": "> 10^4 fold"}, {"measurement": "in vitro potency, fold greater than Alloc-DOX", "setting": "[1]; in the presence of Pd-NP", "result": "roughly 100 fold"}, {"measurement": "kinetic release rate, fold slower than prodrug without C16 anchor", "setting": "[2]", "result": 20, "unit": "fold"}]}
